Sequences of proteins named here, by UniProt entry; tags and fusion partners are left off. A line that says so, or that is headed by a name, gives the form on record, which may keep a tag or linker. Residues count along the entry.
UniProt Q92794, other isoform, or with tags, fused parts or gaps: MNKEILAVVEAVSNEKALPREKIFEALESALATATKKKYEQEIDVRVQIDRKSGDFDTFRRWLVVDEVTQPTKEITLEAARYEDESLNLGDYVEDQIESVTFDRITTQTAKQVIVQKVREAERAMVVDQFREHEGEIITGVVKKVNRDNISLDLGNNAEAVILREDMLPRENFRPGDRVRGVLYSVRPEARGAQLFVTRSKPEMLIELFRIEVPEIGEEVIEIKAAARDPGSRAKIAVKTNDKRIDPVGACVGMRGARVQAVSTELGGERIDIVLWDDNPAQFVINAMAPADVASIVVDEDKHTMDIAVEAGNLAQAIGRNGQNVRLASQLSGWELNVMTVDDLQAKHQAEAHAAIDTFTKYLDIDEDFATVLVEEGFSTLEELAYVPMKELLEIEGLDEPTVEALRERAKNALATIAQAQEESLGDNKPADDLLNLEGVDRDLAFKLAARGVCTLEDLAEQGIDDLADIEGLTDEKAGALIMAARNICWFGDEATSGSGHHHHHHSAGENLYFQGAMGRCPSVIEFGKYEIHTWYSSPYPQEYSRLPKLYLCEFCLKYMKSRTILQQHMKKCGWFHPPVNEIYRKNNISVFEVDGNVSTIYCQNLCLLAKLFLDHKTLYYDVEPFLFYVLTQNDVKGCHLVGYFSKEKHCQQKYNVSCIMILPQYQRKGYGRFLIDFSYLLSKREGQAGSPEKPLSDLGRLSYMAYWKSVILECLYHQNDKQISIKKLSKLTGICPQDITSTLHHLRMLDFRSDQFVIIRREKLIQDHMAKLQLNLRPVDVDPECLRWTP
UniProt O95251, other isoform, or with tags, fused parts or gaps: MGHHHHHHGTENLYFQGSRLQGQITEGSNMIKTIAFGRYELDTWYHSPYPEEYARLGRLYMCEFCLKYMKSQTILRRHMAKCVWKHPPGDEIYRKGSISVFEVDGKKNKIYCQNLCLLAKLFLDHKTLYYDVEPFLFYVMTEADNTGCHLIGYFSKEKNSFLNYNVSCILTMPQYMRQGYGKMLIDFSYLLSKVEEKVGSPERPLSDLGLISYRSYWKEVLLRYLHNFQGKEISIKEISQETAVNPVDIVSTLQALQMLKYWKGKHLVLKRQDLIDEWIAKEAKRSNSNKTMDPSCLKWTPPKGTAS
UniProt Q92993, other isoform, or with tags, fused parts or gaps: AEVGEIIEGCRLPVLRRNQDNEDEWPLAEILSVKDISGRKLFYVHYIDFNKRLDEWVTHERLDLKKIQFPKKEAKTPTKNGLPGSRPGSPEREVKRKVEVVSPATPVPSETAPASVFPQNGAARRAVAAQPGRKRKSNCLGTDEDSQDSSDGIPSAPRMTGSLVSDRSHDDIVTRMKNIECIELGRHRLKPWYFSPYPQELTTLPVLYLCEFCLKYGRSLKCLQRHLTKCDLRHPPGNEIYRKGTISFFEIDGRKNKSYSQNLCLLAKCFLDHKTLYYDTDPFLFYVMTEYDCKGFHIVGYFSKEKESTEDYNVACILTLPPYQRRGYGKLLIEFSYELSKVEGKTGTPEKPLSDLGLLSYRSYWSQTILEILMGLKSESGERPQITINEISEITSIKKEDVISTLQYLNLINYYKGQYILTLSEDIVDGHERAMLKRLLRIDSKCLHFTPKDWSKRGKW
UniProt Q9H7Z6, 177-447: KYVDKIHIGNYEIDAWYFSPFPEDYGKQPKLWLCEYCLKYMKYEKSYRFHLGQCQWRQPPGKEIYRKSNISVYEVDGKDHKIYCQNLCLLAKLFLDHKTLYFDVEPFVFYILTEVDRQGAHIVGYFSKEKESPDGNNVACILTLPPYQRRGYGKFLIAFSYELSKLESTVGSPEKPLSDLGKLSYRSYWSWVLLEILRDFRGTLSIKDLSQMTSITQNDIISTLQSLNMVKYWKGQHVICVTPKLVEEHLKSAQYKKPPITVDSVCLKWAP

In US20240277683A1, “COMPOUNDS” (CTXT PTY LTD, priority 2018, published 2024):

What was measured:
[1] = molecular target: MOZ-KAT6A (Homo sapiens (Human), UniProt Q92794); assay: Acetyltransferase biochemical assay (AlphaScreen), KAT6A
[2] = tested on: acetylation of the histone H3 Lysine 14 marker in U2OS cells; assay: Histone H3 Lysine 14 Acetylation Biomarker Assay; assay type: cell-based; details: Homo sapiens, 24 h
Experimental: Compounds may be tested for their ability to inhibit acetylation of the histone H3 Lysine 14 marker in the following assay:
The cell line U2OS was seeded at a density of 3,000 cells per well in 384-well optical quality tissue culture plates in RPMI medium supplemented with 10% foetal bovine serum and 10 mM Hepes. The cells were allowed to adhere for 24 hours under standard culture conditions (37 degree Celsius, 5% CO2). At the end of this period the cells were washed with serum free medium. […] […]. After washing, a secondary antibody labelled with AlexaFluor 488 dye (ThermoFisher) and Hoechst 33342 (1 μg/mL, Life Technologies) were added for 2 hours incubation at room temperature. Plates were washed and read on a PerkinElmer Opera HCS high content imaging platform. Using a Columbus image analysis pipeline, individual nuclei were located by Hoechst 33342 stain and the acetylation level was calculated from the AlexaFluor 488-related intensity in the same area.

[3] = tested on: histone H2A.Z Lysine 7 acetylation marker in U2OS cells; assay: H2A.Z Lysine 7 Acetylation Biomarker Assay; assay type: cell-based; details: Homo sapiens, 24 h
Experimental: Compounds may be tested for their ability to inhibit the histone H2A.Z Lysine 7 acetylation marker in the following assay:
The cell line U2OS was seeded at a density of 3,000 cells per well in 384-well optical quality tissue culture plates in RPMI medium supplemented with 10% foetal bovine serum and 10 mM Hepes. The cells were allowed to adhere for 24 hours under standard culture conditions (37 degree Celsius, 5% CO2). At the end of this period the cells were washed with serum free medium. […] 2018, at 30 μM concentration. […]. After washing, a secondary antibody labelled with AlexaFluor 488 dye (ThermoFisher) and Hoechst 33342 (1 μg/mL, Life Technologies) were added for 2 hours incubation at room temperature. Plates were washed and read on a PerkinElmer Opera HCS high content imaging platform. Using a Columbus image analysis pipeline, individual nuclei were located by Hoechst 33342 stain and the acetylation level was calculated from the AlexaFluor 488-related intensity in the same area.

[4] = tested on: acetylation of the histone H3K23 marker in U2OS cells; assay: Histone H3 Lysine 23 Acetylation Biomarker Assay; assay type: cell-based; details: Homo sapiens, 24 h
Experimental: Compounds may be tested for their ability to inhibit acetylation of the histone H3K23 marker in the following assay:
The cell line U2OS was seeded at a density of 9,000 cells per well in 96 well optical quality tissue culture plates in RPMI medium and 10% foetal bovine serum, and allowed to adhere for 24 hours under standard culture conditions (37 degree Celsius, 5% CO2). At the end of this period the medium was aspirated. […] After incubation for 24 hours, the cells were fixed with 3.7% formaldehyde in PBS for 20 minutes at room temperature, washed (5×5 minutes) with phosphate buffer saline containing 0.1% Tween 20 and blocked with Odyssey blocking buffer (LI-COR, Lincoln, NE) containing 0.1% TritonX100. Anti-H3K23ac specific antibody (Abcam ab177275) in Odyssey blocking buffer containing 0.1% Tween 20 was added and incubated for 16 hours at 4 degree Celsius. After washing (as above), a secondary antibody labelled with Alexa647 dye (LifeTechnologies) and Hoechst 33342 (1 μg/mL, SigmaAldrich) were added for 1 hour incubation. Plates were washed as previously and read on a PerkinElmer Phenix high content imaging platform. Using a Columbus image analysis pipeline, individual nuclei were located by Hoechst 33342 stain and the acetylation level was calculated from the Alexa647-related intensity in the same area.

[5] = molecular target: HBO-KAT7 (Homo sapiens (Human), UniProt O95251); assay: Acetyltransferase biochemical assay (AlphaScreen), KAT7
[6] = molecular target: TIP60-KAT5 (Homo sapiens (Human), UniProt Q92993); assay: Acetyltransferase biochemical assay (AlphaScreen), KAT5
[7] = molecular target: MOF-KAT8 (Homo sapiens (Human), UniProt Q9H7Z6); assay: biochemical

`O=S(=O)(Nc1cc(-c2ccc(Br)cc2)on1)c1ccccc1` [Example 62, N-(5-(4-Bromophenyl)isoxazol-3-yl)benzenesulfonamide] showed an IC50 [1] of 52600 nM.

`O=S(=O)(Nc1cc(-c2ccccc2Br)no1)c1ccccc1` [Example 79, N-(3-(2-bromophenyl)isoxazol-5-yl)benzenesulfonamide] was tested, and the IC50 [1] was 28400 nM.

`COc1ccc(Br)cc1-c1cc(NS(=O)(=O)c2c(OC)cccc2OC)no1` [Example 1, N-(5-(5-Bromo-2-methoxyphenyl)isoxazol-3-yl)-2,6-dimethoxybenzenesulfonamide] showed an IC50 [2] of 124 nM, an IC50 [3] of 2230 nM and an IC50 [4] of 28.4 nM.

`COC(=O)c1ccc(OC)c(-c2cc(NS(=O)(=O)c3c(OC)cccc3OC)no2)c1` [Example 69, Methyl 3-(3-((2,6-dimethoxyphenyl)sulfonamido)isoxazol-5-yl)-4-methoxybenzoate] showed an IC50 [5] of 261 nM and an IC50 [6] of 845 nM.

For `COc1ccc(-c2ccccc2)cc1-c1cc(NS(=O)(=O)c2c(OC)cccc2OC)no1` [Example 84, 2,6-Dimethoxy-N-(5-(4-methoxy-[1,1′-biphenyl]-3-yl)isoxazol-3-yl)benzenesulfonamide], the IC50 [2] was 878 nM, the IC50 [3] was 3150 nM and the IC50 [4] was 645 nM.

Work on `COc1ccc(C#N)cc1-c1cc(NS(=O)(=O)c2c(OC)cccc2OC)no1` [Example 87, N-(5-(5-Cyano-2-methoxyphenyl)isoxazol-3-yl)-2,6-dimethoxybenzenesulfonamide] yielded an IC50 [7] of 76600 nM, an IC50 [5] of 5410 nM and an IC50 [6] of 19200 nM.

Work on `O=S(=O)(Nc1noc(-c2ccccc2)n1)c1ccccc1F` [Example 68, 2-Fluoro-N-(5-phenyl-1,2,4-oxadiazol-3-yl)benzenesulfonamide] yielded an IC50 ([1]; MOZ-KAT6A, 1 μM AcCoA, histone H3.1) of 92400 nM.

Read-outs that look alike come from different tables or passages of the source.
